The text below walks through data of publication PMC7658267, “Effects of CYP46A1 Inhibition on Long-Term-Depression in Hippocampal Slices ex vivo and 24S-Hydroxycholesterol Levels in Mice in vivo” (Frontiers in Molecular Neuroscience, 2020).

Protein sequences, listed by entry. Tags and fused reporters are not part of them. Lines headed by an entry give the natural chain unless they say otherwise; changes in a name come on top.
UniProt Q9Y6A2: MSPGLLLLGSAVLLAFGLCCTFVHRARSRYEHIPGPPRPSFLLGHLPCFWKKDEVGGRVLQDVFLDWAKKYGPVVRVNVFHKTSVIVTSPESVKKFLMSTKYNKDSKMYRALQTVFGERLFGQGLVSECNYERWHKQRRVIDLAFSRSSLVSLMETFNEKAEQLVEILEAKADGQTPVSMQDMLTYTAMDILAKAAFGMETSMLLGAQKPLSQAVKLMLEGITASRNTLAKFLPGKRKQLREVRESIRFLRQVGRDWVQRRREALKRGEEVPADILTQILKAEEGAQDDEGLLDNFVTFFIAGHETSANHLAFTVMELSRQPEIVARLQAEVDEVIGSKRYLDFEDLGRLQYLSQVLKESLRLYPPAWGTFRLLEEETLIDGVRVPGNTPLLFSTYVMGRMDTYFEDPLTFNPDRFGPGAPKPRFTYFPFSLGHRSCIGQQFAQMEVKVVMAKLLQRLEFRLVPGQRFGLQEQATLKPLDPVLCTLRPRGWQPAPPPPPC

This assay has as its target CYP46A1 (Homo sapiens, UniProt Q9Y6A2).

As for `C[C@]12CC[C@H]3[C@@H](CCC4=CC(=O)CC[C@@]43C)[C@@H]1CC[C@@H]2O` [testosterone], the “oxidation to 16beta-hydroxytestosterone by human CYP46A1R bactosomes, LC-MS/MS” value is “oxidation of testosterone to 16-beta-hydroxytestosterone by human CYP46A1 enzyme in vitro”.
